# Results reported in US20260098017A1, “NOVEL AROMATIC RING DERIVATIVE CONTAINING AMIDE SUBSTITUTION AND USE THEREOF” (TIANJIN PHARMACEUTICAL BIOTECHNOLOGY CO., LTD., priority 2022, published 2026).
# Sequences of proteins named here, by UniProt entry; tags and fusion partners are left off. Residues count along the entry.
# UniProt O60674, 849-1124 limits assumed: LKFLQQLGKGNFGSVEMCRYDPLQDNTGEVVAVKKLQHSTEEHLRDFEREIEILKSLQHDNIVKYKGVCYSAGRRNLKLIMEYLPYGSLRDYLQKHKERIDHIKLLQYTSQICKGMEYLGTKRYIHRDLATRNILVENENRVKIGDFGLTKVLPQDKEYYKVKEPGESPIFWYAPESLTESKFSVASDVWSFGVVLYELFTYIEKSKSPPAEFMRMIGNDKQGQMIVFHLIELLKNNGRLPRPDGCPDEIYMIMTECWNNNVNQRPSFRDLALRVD
# Target: JAK2 JH1 kinase (Homo sapiens, UniProt O60674)
# Experiment: JAK2 JH1 enzyme assay in vitro (TR-FRET)
# Format: biochemical
smiles,measurement,value
"[2H]C([2H])([2H])NC(=O)c1nnc(NC(=O)C2CC2)cc1Nc1cccc(-c2ncn(C)n2)c1OC([2H])([2H])[2H] [BMS-986165, reference compound]",IC50,> 10 µM
